Experimental data as given in patent US7754772B2, “Nitrosated nonsteroidal antiinflammatory compounds, compositions and methods of use” (NicOx, S.A., priority 2002, dated 2010).

Assays:
[1] = test system: Male Sprague-Dawley rats, carrageenan paw edema; assay: rat paw edema test (carrageenan), antiinflammatory activity; format: in vivo; conditions: oral gavage one hour prior to subplantar carrageenan, paw volume three hours later, expressed as ratio (Vehicle = 1)
[2] = test system: Male Sprague Dawley rats, gastric hemorrhagic lesion; assay: rat gastric lesion test; conditions: rat fasted 24 hours, oral gavage, lesion score (summed length, mm) three hours after dosing; ratio relative to parent NSAID (Naproxen = 1)

Q: Which results are given for “(2R)-7-(Nitrooxy)-4,8-dioxabicyclo(3.3.0)oct-2-yl(2S)-2-(6-methoxy (2-naphthyl)) propanoate”?
A: Relative Activity Antiinflammation [1]: 0.45; Relative Activity Gastric Lesion [2]: 0.09
